# Yeast mating assay 2: variants of the scFv Ab-91

Data: MIT Lincoln Laboratory AlphaSeq set, Engelhart et al. 2022, doi:10.1038/s41597-022-01779-4, as distributed in FLAb.

The target is the same throughout: PDVDLGDISGINAS, from the HR2 region of SARS-CoV-2 spike.

Parent scFv Ab-91: VL joined to VH by a (GGGGS)3 linker. Changes lie in the heavy chain CDRs alone.
VL: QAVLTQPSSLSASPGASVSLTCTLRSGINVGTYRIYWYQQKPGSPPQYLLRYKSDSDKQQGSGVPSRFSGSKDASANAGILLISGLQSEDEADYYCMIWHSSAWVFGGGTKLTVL
VH: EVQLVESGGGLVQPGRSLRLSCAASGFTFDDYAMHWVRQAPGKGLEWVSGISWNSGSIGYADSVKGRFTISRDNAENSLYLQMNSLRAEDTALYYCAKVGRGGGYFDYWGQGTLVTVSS

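The starting antibody came from a phage panning campaign against this peptide. Library AAYL51 holds single substitutions and randomly drawn double and triple substitutions in the CDRs. AlphaSeq pools MATa yeast showing the antibodies with MATalpha yeast showing the peptide. The frequency of each diploid, read from paired DNA barcodes, reflects how well the two displayed proteins bind. Read counts were normalised to the haploid input and turned into Kd by a linear fit to BCL2-family pairs of known affinity, for each replicate. Mating was done three times.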

Changes read parent residue, position, new residue, counted from the first residue of the VH shown. The Kd shown is the geometric mean over detected replicates; a lower Kd is a better binder. "no signal" means that the variant was in the library but no mating with the target was seen in any replicate; the authors take this as a sign of poor binding, and no number exists.

Kd	detected	empty controls	changes
98 µM	3/3	4/9	G56H F106R Y108G
530 nM	3/3	2/9	T28D Y32A K65F
130 µM	2/3	4/9	F29W G102A Y108T
13 µM	1/3	5/9	G50T V99L
no signal	0/3	0/9	N54V S57P R101S
94 nM	1/3	0/9	F29D S55F G56W
10 µM	1/3	1/9	D31V S55R Y105C
no signal	0/3	1/9	F29W A33S V64D
no signal	0/3	0/9	G59P G104M Y105N
160 µM	1/3	0/9	G56K G100Y G102L
80 µM	1/3	1/9	G50D Y60T K65L
no signal	0/3	0/9	S52N I58R Y60Q
no signal	0/3	0/9	S63P V99H F106N
1.5 nM	3/3	7/9	S52A K65E V99F
1.4 µM	3/3	1/9	D30I S63A G102H
42 µM	1/3	4/9	T28M I51H I58G
no signal	0/3	3/9	T28F S55D G102Q
39 µM	2/3	4/9	G26D S55N V64D
44 nM	3/3	2/9	G26A Y105G D107R
no signal	0/3	1/9	D31V I51Y V99D
no signal	0/3	0/9	F29N S55F V99M
no signal	0/3	1/9	D31W S55W G56V
35 µM	2/3	4/9	M34I I51S R101L
no signal	0/3	0/9	I58H D62R Y108N
no signal	0/3	0/9	S52N I58T Y105S
no signal	0/3	1/9	S52Q G59S V64K
36 nM	3/3	3/9	D30W S52A I58T
140 µM	2/3	3/9	H35T Y60H K65L
18 µM	1/3	3/9	F27V A33V S63W
14 µM	1/3	0/9	S55D S63I F106Y
170 µM	3/3	4/9	G26C A33H S52Q
no signal	0/3	0/9	H35Q G102M D107L
no signal	0/3	2/9	M34C V64S D107S
350 µM	2/3	3/9	H35T S52K G102H
140 µM	2/3	6/9	F29I G100L R101F
19 µM	2/3	1/9	D30H S52A V99N
66 µM	3/3	2/9	D30L V99E G100N
300 µM	3/3	4/9	I51N S55P R101T
120 µM	2/3	2/9	G50I N54W A61V
210 µM	3/3	7/9	D30T G50F S57T
560 µM	2/3	4/9	G50I G56C S57I
2.8 µM	1/3	0/9	T28S H35V K65M
390 nM	1/3	1/9	Y32P W53T N54S
no signal	0/3	1/9	D31F Y60M A61D
59 µM	1/3	2/9	F29H G59K V99W
no signal	0/3	2/9	I51Q G56Y Y60V
6.4 nM	3/3	1/9	N54H S55G I58C
no signal	0/3	0/9	D31E S57I G100Y
5.5 µM	2/3	2/9	G26F Y32T G56M
78 µM	2/3	4/9	Y60W V64T G100S
1.1 µM	2/3	2/9	G56H V64P Y108A
83 µM	2/3	7/9	A61G G103S
520 µM	2/3	1/9	G50T S55V D107F
1.7 µM	1/3	1/9	F29S D31F G50N
330 nM	3/3	7/9	D30S I58W S63R
no signal	0/3	1/9	S57M Y60W K65S
no signal	0/3	0/9	G26W D62H G104W
no signal	0/3	0/9	T28W S52F F106C
no signal	0/3	4/9	H35R W53E Y105T
1.5 nM	3/3	1/9	A33G G56H S63N
no signal	0/3	1/9	Y60H G100Y G102V
no signal	0/3	0/9	H35D K65P Y108W
no signal	0/3	0/9	F29T D30R
no signal	0/3	3/9	Y32K S52P G59Q
no signal	0/3	1/9	D31C A61P D107S
86 µM	1/3	0/9	Y32R S52Q S63V
no signal	0/3	3/9	A33E G50T Y60N
890 µM	1/3	0/9	F29D V99Q Y108D
56 µM	1/3	5/9	S55D I58P V64W
no signal	0/3	1/9	I51M G56T F106K
no signal	0/3	0/9	F27L S55P G100Y
6.1 nM	3/3	6/9	F29I W53P F106H

Picked from the list: the 7 lowest averages where every replicate gave a value.

changes	Kd	detected	empty controls
S52A K65E V99F	1.5 nM	3/3	7/9
A33G G56H S63N	1.5 nM	3/3	1/9
F29I W53P F106H	6.1 nM	3/3	6/9
N54H S55G I58C	6.4 nM	3/3	1/9
D30W S52A I58T	36 nM	3/3	3/9
G26A Y105G D107R	44 nM	3/3	2/9
D30S I58W S63R	330 nM	3/3	7/9

Three control strains display no target. For library AAYL51, 21% of the pairings with them gave a signal, with a median of 34 µM and one signal in twenty below 1.8 µM, so weak values seen in few replicates may be background. The control count says in how many pairings with the empty strains this scFv gave a signal. In this assay the parent's reference entry averaged 72 nM; its copy inside this library read 7.5 nM.